Measurements from patent publication US10053462B2, “P2X7 modulators” (Jansssen Pharmaceutica NV, priority 2013, dated 2018).

The chains behind the UniProt entries cited, without tags or fusion partners. Where a name states a change or a piece, a line headed by the entry shows the natural chain unless it says otherwise.
UniProt Q99572: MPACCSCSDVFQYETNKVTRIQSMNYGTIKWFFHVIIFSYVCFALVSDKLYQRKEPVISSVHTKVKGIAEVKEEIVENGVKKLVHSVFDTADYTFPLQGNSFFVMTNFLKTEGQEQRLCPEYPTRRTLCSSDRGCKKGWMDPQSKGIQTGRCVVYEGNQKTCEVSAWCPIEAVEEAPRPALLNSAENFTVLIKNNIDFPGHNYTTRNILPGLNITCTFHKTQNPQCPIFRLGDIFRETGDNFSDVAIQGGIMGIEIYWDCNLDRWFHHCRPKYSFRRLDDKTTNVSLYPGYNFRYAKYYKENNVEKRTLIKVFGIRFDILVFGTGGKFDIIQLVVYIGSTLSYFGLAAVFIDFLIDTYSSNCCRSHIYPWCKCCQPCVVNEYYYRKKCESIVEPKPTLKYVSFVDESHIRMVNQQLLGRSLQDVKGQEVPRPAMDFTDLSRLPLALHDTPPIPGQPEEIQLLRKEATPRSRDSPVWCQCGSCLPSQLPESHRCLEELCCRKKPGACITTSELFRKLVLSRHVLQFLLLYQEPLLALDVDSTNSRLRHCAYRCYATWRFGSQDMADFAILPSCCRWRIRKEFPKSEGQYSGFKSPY

These molecules were tested against P2X7 (Homo sapiens (Human), UniProt Q99572) (assay: P2X7 antagonism in human peripheral blood mononuclear cells (PBMCs), IL-1β release). Conditions: P2X7, Table 2 (additional runs), 10 μM compound, LPS 30 ng/ml + Bz-ATP 0.5 mM, read-out: PBMC 10 μM (% control).
Assay type: cell-based

| Structure (SMILES) | remaining activity at 10 µM [%] |
| --- | --- |
| O=C(c1cccc(C(F)(F)F)c1Cl)N1[C@@H]2CCC[C@H]1c1nnc(-c3cccnc3)n1C2 (stereo in doubt) [Example 15, (6R*,10S*)-11-{[2-Chloro-3-(trifluoromethyl)phenyl]carbonyl}-3-pyridin-3-yl-5,6,7,8,9,10-hexahydro-6,10-epimino[1,2,4]triazolo[4,3-a]azocine] | 89.8 |
| O=C(c1cccc(C(F)(F)F)c1Cl)N1[C@H]2CCC[C@@H]1c1nnc(-c3ncc(F)cn3)n1C2 (stereo in doubt) [Example 17, (6S*,10R*)-11-{[2-Chloro-3-(trifluoromethyl)phenyl]carbonyl}-3-(5-fluoropyrimidin-2-yl)-5,6,7,8,9,10-hexahydro-6,10-epimino[1,2,4]triazolo[4,3-a]azocine] | 84.2 |
| O=C(c1ccc(Cl)cc1Cl)N1[C@H]2CCC[C@@H]1c1nnc(-c3ncc(F)cn3)n1C2 (stereo in doubt) [Example 20, (6S*,10R*)-11-[(2,4-Dichlorophenyl)carbonyl]-3-(5-fluoropyrimidin-2-yl)-5,6,7,8,9,10-hexahydro-6,10-epimino[1,2,4]triazolo[4,3-a]azocine] | 104 |
| O=C(c1cccc(C(F)(F)F)c1Cl)N1[C@H]2CC[C@@H]1c1nnc(-c3cnccn3)n1C2 [Example 42, (6S,9R)-10-{[2-Chloro-3-(trifluoromethyl)phenyl]carbonyl}-3-pyrazin-2-yl-6,7,8,9-tetrahydro-5H-6,9-epimino[1,2,4]triazolo[4,3-a]azepine] | -21.3 |
| O=C(c1ccc(F)c(C(F)(F)F)c1Cl)N1[C@H]2CC[C@@H]1c1nnc(-c3ccccn3)n1C2 [Example 43, (6S,9R)-10-{[2-Chloro-4-fluoro-3-(trifluoromethyl)phenyl]carbonyl}-3-pyridin-2-yl-6,7,8,9-tetrahydro-5H-6,9-epimino[1,2,4]triazolo[4,3-a]azepine] | -18.6 |
| O=C(c1cccc(C(F)(F)F)c1Cl)N1[C@H]2CC[C@@H]1c1nnc(-c3ncc(F)cn3)n1C2 [Example 50, (6S,9R)-10-{[2-Chloro-3-(trifluoromethyl)phenyl]carbonyl}-3-(5-fluoropyrimidin-2-yl)-6,7,8,9-tetrahydro-5H-6,9-epimino[1,2,4]triazolo[4,3-a]azepine] | 10.4 |
| O=C(c1cccc(C(F)(F)F)c1Cl)N1[C@H]2CC[C@@H]1c1nnc(-c3ccc(Cl)s3)n1C2 [Example 55, (6S,9R)-3-(5-Chlorothiophen-2-yl)-10-{[2-chloro-3-(trifluoromethyl)phenyl]carbonyl}-6,7,8,9-tetrahydro-5H-6,9-epimino[1,2,4]triazolo[4,3-a]azepine] | 15.3 |
| Cc1nc(-c2nnc3n2C[C@@H]2CC[C@H]3N2C(=O)c2cccc(C(F)(F)F)c2Cl)cs1 [Example 56, (6S,9R)-10-{[2-Chloro-3-(trifluoromethyl)phenyl]carbonyl}-3-(2-methyl-1,3-thiazol-4-yl)-6,7,8,9-tetrahydro-5H-6,9-epimino[1,2,4]triazolo[4,3-a]azepine] | 25.9 |
| O=C(c1cccc(C(F)(F)F)c1Cl)N1[C@H]2CC[C@@H]1c1nnc(-c3cccs3)n1C2 [Example 61, (6S,9R)-10-{[2-Chloro-3-(trifluoromethyl)phenyl]carbonyl}-3-thiophen-2-yl-6,7,8,9-tetrahydro-5H-6,9-epimino[1,2,4]triazolo[4,3-a]azepine] | 11.2 |
| O=C(c1cccc(C(F)(F)F)c1Cl)N1[C@H]2CC[C@@H]1c1nnc(-c3ccc[nH]3)n1C2 [Example 62, (6S,9R)-10-{[2-Chloro-3-(trifluoromethyl)phenyl]carbonyl}-3-(1H-pyrrol-2-yl)-6,7,8,9-tetrahydro-5H-6,9-epimino[1,2,4]triazolo[4,3-a]azepine] | 14.1 |
